# According to patent US7270830B2, “Transdermal buprenorphine dosage regimen for analgesia” (dated 2007):
# Marks after values point to notes of the source that are not given here.
# Test: Plasma buprenorphine/norbuprenorphine pharmacokinetics, BTDS 5-10-20 escalation (Example 1)
# Conditions: for AUCt, mean (SE) / AUC∞, mean (SE) / Cmax, mean (SE) / t1/2, mean (SE) / tmax, mean (SE): plasma
# [1] = Elderly Healthy, after application of BTDS 20
# [2] = Elderly Hypertensive, after application of BTDS 20
# [3] = Young Healthy, after application of BTDS 20
structure (smiles),measurement,setting,value
CO[C@]12CC[C@@]3(C[C@@H]1[C@](C)(O)C(C)(C)C)[C@H]1Cc4ccc(O)c5c4[C@@]3(CCN1)[C@H]2O5,"AUCt, mean (SE)","Elderly Healthy (n = 10), after application of BTDS 20",26210 (3102) pg · h/mL
same,"AUC∞, mean (SE)",[1],30913 (3976)^b pg · h/mL
same,"Cmax, mean (SE)",[1],158 (18) pg/mL
same,"t1/2, mean (SE)",[1],48 (5)^b h
same,"tmax, mean (SE)",[1],257 (14) h
same,"AUCt, mean (SE)","Elderly Hypertensive (n = 11), after application of BTDS 20",37695 (4023) pg · h/mL
same,"Cmax, mean (SE)",[2],260 (40) pg/mL
same,"tmax, mean (SE)",[2],295 (13) h
same,"AUCt, mean (SE)","Young Healthy (n = 11), after application of BTDS 20 (BTDS 5-10-20 escalation)",31359 (3447) pg · h/mL
same,"AUC∞, mean (SE)",[3],33535 (3945)^a pg · h/mL
same,"Cmax, mean (SE)",[3],191 (21) pg/mL
same,"t1/2, mean (SE)",[3],45 (7)^a h
same,"tmax, mean (SE)",[3],240 (16) h
same,Between-group differences in pharmacokinetic parameters,young healthy vs elderly healthy vs elderly hypertensive,no statistically significant differences
